Experimental data published in patent publication US8841257B2, “Inhibitors of STAT3 and uses thereof” (Board of Regents, The University of Texas System, priority 2009, dated 2014).

Sequences of proteins named here, by UniProt entry; tags and fusion partners are left off.
UniProt P40763, whole entry: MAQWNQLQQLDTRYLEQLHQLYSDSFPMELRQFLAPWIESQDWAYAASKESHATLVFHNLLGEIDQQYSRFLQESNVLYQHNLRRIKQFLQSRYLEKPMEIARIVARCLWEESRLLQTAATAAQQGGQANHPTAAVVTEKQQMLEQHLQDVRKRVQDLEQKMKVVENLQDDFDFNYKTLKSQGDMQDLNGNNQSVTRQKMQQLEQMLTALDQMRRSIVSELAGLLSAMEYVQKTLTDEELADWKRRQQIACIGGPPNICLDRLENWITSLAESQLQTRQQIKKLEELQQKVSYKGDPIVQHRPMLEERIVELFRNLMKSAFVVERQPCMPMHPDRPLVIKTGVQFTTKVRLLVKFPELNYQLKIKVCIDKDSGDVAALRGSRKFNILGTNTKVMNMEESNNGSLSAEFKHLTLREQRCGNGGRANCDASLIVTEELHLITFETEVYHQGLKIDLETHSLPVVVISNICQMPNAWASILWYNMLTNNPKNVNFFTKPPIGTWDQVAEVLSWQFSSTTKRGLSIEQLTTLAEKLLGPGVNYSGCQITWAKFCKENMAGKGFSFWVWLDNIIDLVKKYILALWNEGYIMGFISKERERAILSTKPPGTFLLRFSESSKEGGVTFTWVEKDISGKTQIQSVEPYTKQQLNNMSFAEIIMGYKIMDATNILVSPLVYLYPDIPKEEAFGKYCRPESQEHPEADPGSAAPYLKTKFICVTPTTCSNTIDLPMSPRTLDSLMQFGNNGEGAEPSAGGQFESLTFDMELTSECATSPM

Target: full length STAT3 (Homo sapiens, UniProt P40763)
Test: Fluorescence polarization competition assay for binding to STAT3
Details: read-out: IC50 (nM), affinity of peptidomimetics for STAT3; competition with FAM-Ala-pTyr-Leu-Pro-Gln-Thr-Val-NH2; mean of three ± standard deviation

Compound | IC50
C/C(=C\C(=O)N[C@H]1CCc2cccc3c2N(C1=O)[C@H](C(=O)NCCOC(N)=O)C3)c1ccc(OP(=O)(O)O)cc1 | 201 nM
C/C(=C\C(=O)N[C@@H](CC(C)C)C(=O)N1CCC[C@H]1C(=O)NCCOC(N)=O)c1ccc(OP(=O)(O)O)cc1 | 216 nM
CCCC[C@H](NC(=O)/C=C(\C)c1ccc(OP(=O)(O)O)cc1)C(=O)N1C[C@H]2C[C@H]2[C@H]1C(=O)N[C@H](C)CCC(N)=O | 70 nM
CCCC[C@H](NC(=O)/C=C(\C)c1ccc(OP(=O)(O)O)cc1)C(=O)N1C[C@H]2C[C@H]2[C@H]1C(=O)NCCOC(N)=O | 122 nM
C/C(=C\C(=O)N[C@H]1CCc2cccc3c2N(C1=O)[C@H](C(=O)N[C@H](C)CCC(N)=O)C3)c1ccc(OP(=O)(O)O)cc1 | 112 nM
C/C(=C\C(=O)N[C@@H](CC(C)C)C(=O)N1C[C@H]2C[C@H]2[C@H]1C(=O)NCCNC(N)=O)c1ccc(OP(=O)(O)O)cc1 | 42 nM
C/C(=C\C(=O)N[C@H]1CCc2cccc3c2N(C1=O)[C@H](C(=O)NCCNC(N)=O)C3)c1ccc(OP(=O)(O)O)cc1 | 412 nM
C/C(=C\C(=O)N[C@@H](CC(C)C)C(=O)N1C[C@H]2C[C@H]2[C@H]1C(=O)NCCOC(N)=O)c1ccc(OP(=O)(O)O)cc1 | 206 nM
C/C(=C\C(=O)N[C@@H](CC(C)C)C(=O)N1CCC[C@H]1C(=O)N[C@H](C)CCC(N)=O)c1ccc(OP(=O)(O)O)cc1 | 154 nM
C/C(=C\C(=O)N[C@@H](CC(C)C)C(=O)N1CCC[C@H]1C(=O)NCCNC(N)=O)c1ccc(OP(=O)(O)O)cc1 | 100 nM
C/C(=C\C(=O)N[C@@H](CC(C)C)C(=O)N1C[C@H]2C[C@H]2[C@H]1C(=O)N[C@H](C)CCC(N)=O)c1ccc(OP(=O)(O)O)cc1 | 88 nM
